# Antibody variant affinities, Ab-14 light chain, assay B

All variants were tested on one target, the spike HR2 peptide PDVDLGDISGINAS (SARS-CoV-2).

Ab-14 is the parent antibody, in scFv form: VH, then three GGGGS repeats, then VL. The heavy chain is unchanged in all variants.
VH: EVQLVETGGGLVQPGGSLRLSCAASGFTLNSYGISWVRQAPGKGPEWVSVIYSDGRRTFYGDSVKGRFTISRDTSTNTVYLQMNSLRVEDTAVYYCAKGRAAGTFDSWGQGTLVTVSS
VL: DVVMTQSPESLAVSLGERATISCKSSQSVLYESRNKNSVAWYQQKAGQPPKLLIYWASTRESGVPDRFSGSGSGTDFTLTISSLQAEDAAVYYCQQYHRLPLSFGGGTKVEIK

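The parent was found by panning a naive human phage display library on the peptide. These sequences belong to a second round, designed from the earlier measurements on random variants of the parent. Group labels follow the data file (Ctrl: baseline library sampled from a position-specific scoring matrix, with some repeated check sequences; Rand: our label for a block that the file lists under HC and that is probably the random mutants of the ten best first-round binders; En: ensemble of fine-tuned language models; GP: Gaussian process model; HC: hill climbing; Gen: genetic algorithm; Gibbs: Gibbs sampling; a sequence that several methods proposed may carry one label only). The scFvs were displayed on barcoded MATa yeast, the peptide on MATalpha yeast. After mating in shaken culture at 30 °C for 16 h, diploids were selected and their barcode pairs sequenced. A regression on co-assayed BCL2-family reference pairs converts the normalised counts of each replicate to an apparent Kd. Mating was done six times.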

Variants are written as CDR1, CDR2 and CDR3 of the light chain (limits as in the source). Parent: KSSQSVLYESRNKNSVA, WASTRES, QQYHRLPLS.
Values are apparent Kd, the geometric mean of the replicates that gave a signal; lower means stronger binding.
An entry "nd" has no value in the source: the pair was not observed among the diploids in any replicate. This suggests poor binding but is not conclusive.

| # | apparent Kd | detected | CDR-L1 | CDR-L2 | CDR-L3 | group |
|---|---|---|---|---|---|---|
| 1 | 1.7 nM | 6 of 6 | KFSQSVCYEQRQKNSVA | NASTRMS | QQYHRLPLS | GP_Gibbs |
| 2 | 810 pM | 6 of 6 | KLSQSDLYESRNKNSVA | NASTREW | QQYHRLPLS | GP_Gen |
| 3 | 1.1 nM | 6 of 6 | HMNHEFYGYWNYEQAIA | HESQRLY | QQYSRLPLS | En_Gibbs |
| 4 | 25 µM | 1 of 6 | KSYSSVLYENRIKNSVA | WASTRES | QQYHRLPLS | Ctrl |
| 5 | 34 nM | 1 of 6 | SLSPFMDTYNQKYDSVA | DTANIDI | QQYDRLPLS | En_Gibbs |
| 6 | 910 pM | 6 of 6 | KLQMQVEMSSRNKNSVA | QANTRES | QQYHRLPLS | GP_Gibbs |
| 7 | 1.3 nM | 6 of 6 | KLSQSQEYESRNKNSVA | NASQRES | QQYHRLPLS | GP_Gen |
| 8 | 610 pM | 6 of 6 | KLSYSNLYEDRNKNSVA | NASTRCQ | QQYHRLPLS | GP_Gibbs |
| 9 | 89 nM | 1 of 6 | KSSQSVEYESENKNSVA | KVDTREI | QQAHRLPLS | Ctrl |
| 10 | 1.5 nM | 6 of 6 | KFSQSVQYESTNKNSVA | RASTRET | QQYHRLPLS | Ctrl |
| 11 | 56 nM | 6 of 6 | TISQVMNTLTRHGNNVA | DLQEREK | QQYFRLPLS | En_Gen |
| 12 | 970 pM | 6 of 6 | KFSQSVLYESRTKNAVA | NASTRES | QQYHRLPLS | GP_HC |
| 13 | 470 pM | 6 of 6 | KISQSVLYESRNKNAVA | DASTRES | QQYHWLPLS | GP_HC |
| 14 | 1.0 nM | 6 of 6 | QLGKNQVGDTLSQHAIA | HDALRVD | QQYFRLPLL | En_Gibbs |
| 15 | 1.3 nM | 6 of 6 | KLEQSIYYESRNKNSVA | NASTRES | QQYHRLPLS | GP_HC |
| 16 | 1.7 nM | 6 of 6 | KLQQSELYEERNSNSVA | NASLREL | QQYHRLPLS | GP_Gibbs |
| 17 | 19 nM | 6 of 6 | IISFVDAYESRNKNSIA | DQSTRGS | QQYDRLPLS | En_HC |
| 18 | 3.0 nM | 6 of 6 | KLMQGWLMESRNKNSVA | NASMRLD | QQYHRLPLS | GP_Gibbs |
| 19 | 2.0 µM | 1 of 6 | IVSQLMLWGYTAKNSIA | EAQTRLN | QQYERLPLF | En_Gen |
| 20 | nd | 0 of 6 | KSLQSVLCESRNKNEVA | HASTRED | QQYHRLPLS | Rand |
| 21 | 920 pM | 6 of 6 | NLSWKQIGQNMESMAVA | GTEQRNA | QQYARLPLS | En_Gibbs |
| 22 | 1.0 nM | 6 of 6 | KSSISWLYESRNKNSVA | GASTREK | QQYHRLPLS | GP_HC |
| 23 | 41 nM | 6 of 6 | KSSQSVLEESRNKNSVA | WASTRNS | QQYHHLPLS | Ctrl |
| 24 | 2.2 nM | 6 of 6 | KQSYGQDYSSRNDNSVA | DASTRES | QQYHRLPLS | GP_Gibbs |
| 25 | 98 nM | 1 of 6 | MSSQSVTNESRNKNSVA | WASTRET | QQYHRLPLN | Ctrl |
| 26 | 3.5 nM | 6 of 6 | KSSQSFLYESRVKNSVA | GASQRES | QQYHRLPLS | GP_HC |
| 27 | 1.6 nM | 6 of 6 | QLGAMFDMTSKNKNSVA | EQSTREN | QQYHRLPLS | En_HC |
| 28 | 42 nM | 6 of 6 | KSSQSVLNESNNKNSVA | WASCRES | QQYHRLPLS | Ctrl |
| 29 | 2.8 nM | 6 of 6 | TVSQVHEMLSRNKNSVA | DANCRES | QQYDRLPLS | En_HC |
| 30 | 19 nM | 6 of 6 | HMMSGSVEQWNIQNAVA | EMSEVYD | QQYVSLPLS | En_Gibbs |
| 31 | 34 nM | 6 of 6 | MMSQVTGLGQRHRNNVA | QTSMREN | QQYDRLPLI | En_Gen |
| 32 | 750 pM | 6 of 6 | ALSWSDGGESRNPNSVA | HASTRES | QQYHRLPLS | GP_Gibbs |
| 33 | 1.3 nM | 6 of 6 | KMSQSVLYESRNQNSVA | SASTRES | QQYHHLPLS | Ctrl |
| 34 | 600 pM | 6 of 6 | KLGDMVHTEMRNKNSIA | DMRTRES | QQYYRLPLS | En_HC |
| 35 | 510 pM | 6 of 6 | KLQQSVLYESRNKNSVA | DASQRES | QQYHRLPLS | GP_Gen |
| 36 | 2.3 nM | 6 of 6 | ALSQLELGESRNWNSVA | NASTREK | QQYHRLPLS | GP_Gibbs |
| 37 | 870 pM | 6 of 6 | KSSQSFLYEERNKNSVA | QAYNRES | QQYHRLPLS | Ctrl |
| 38 | 5.1 nM | 6 of 6 | KSSQSKLYESGNKNSVA | HASTRES | QQYHRLPLS | GP_HC |
| 39 | 1.0 nM | 6 of 6 | KLQYLVLYESRNKNSVA | GASTRLQ | QQYHRLPLS | GP_Gibbs |
| 40 | 160 nM | 4 of 6 | NLSGHQYNNSQYKNSIA | EDNNIRL | QQYHRLPFT | En_Gibbs |
| 41 | 20 nM | 6 of 6 | KSSWSYLYESRNKNSVA | EASTREQ | QQYHRLPLS | GP_HC |
| 42 | 9.1 nM | 6 of 6 | KVHAYTQGVEQDMQNVA | EGSYASR | QQYFRLPLS | En_Gibbs |
| 43 | 15 nM | 6 of 6 | NLDKADYEMRQMINNIA | DMSTLVA | QQYASLPLD | En_Gibbs |
| 44 | 1.3 nM | 6 of 6 | KLSTVTEYESRNKNNVA | DLTTRGS | QDYHRLPLS | En_HC |
| 45 | 5.4 nM | 6 of 6 | MFSQSVMTGSFMRNSVA | QTSTRES | QQYDRLPLS | En_HC |
| 46 | 2.7 nM | 6 of 6 | KISGSYLGESRNWNSVA | EASQREQ | QQYHRLPLS | GP_Gibbs |
| 47 | 2.2 nM | 6 of 6 | KLSQSVLYESGNKNSVA | NASTRMS | QQYHRLPLS | GP_Gen |
| 48 | 160 nM | 4 of 6 | IVSQLMIWGMHYKNSIA | EAELRLN | QQYDRLPLI | En_Gen |
| 49 | 2.0 nM | 6 of 6 | TIGMFMDNLMQNRNNVA | DTSTLGD | QSYDRLPLS | En_Gen |
| 50 | nd | 0 of 6 | KSSQSVVYESRMKNPVA | WASTRES | QWYHRLAES | Ctrl |
| 51 | 24 nM | 6 of 6 | KLVGVDDNDPNPSHAIA | DVSTLDN | QQYHRLPLD | En_Gibbs |
| 52 | 2.6 nM | 6 of 6 | KLSWSMLYESRNKNSVA | DASQRES | QQYHRLPLS | GP_Gen |
| 53 | 4.5 nM | 6 of 6 | TISQSAQQESHTKNSVA | DLSVRGS | QQYHRLPLS | En_HC |
| 54 | 2.0 nM | 6 of 6 | KLYGSQLYESRNKNSVA | NASTRES | QQYHRLPLS | GP_Gen |
| 55 | 29 nM | 6 of 6 | KSSQSVLYESRNKNSVA | EASTRHS | QQYHRLPCS | Ctrl |
| 56 | 62 nM | 1 of 6 | SLAESAHMESRNKNSVA | DNSTRES | QHYDRLPLS | En_HC |
| 57 | 95 nM | 6 of 6 | NLGYQQDGNGLQRQAVA | GVTMKEY | QYYGRLPLM | En_Gibbs |

Repeated from above, the 3 best binders with a signal in all replicates:

| CDR-L1 | CDR-L2 | CDR-L3 | group | apparent Kd | detected |
|---|---|---|---|---|---|
| KISQSVLYESRNKNAVA | DASTRES | QQYHWLPLS | GP_HC | 470 pM | 6 of 6 |
| KLQQSVLYESRNKNSVA | DASQRES | QQYHRLPLS | GP_Gen | 510 pM | 6 of 6 |
| KLGDMVHTEMRNKNSIA | DMRTRES | QQYYRLPLS | En_HC | 600 pM | 6 of 6 |

The authors' rule: three or more of the six replicates give a measured affinity, fewer mean a poor binder.
The range of this assay differs from that of the first round, and the authors advise against merging the two.
Empty control strains, which show no peptide, gave a signal in 4% of pairings with all light chain designs; the median was 430 nM and 95% of these signals were weaker than 38 nM. No background was subtracted.
The parent sequence was in this pool as ten entries: three were never detected, three once, and four in most replicates, with averages from 2.2 nM to 240 nM.

Values reported by Li et al. 2023, doi:10.1038/s41467-023-39022-2 (FLAb copy).